Only a part is listed here, and it is no random draw. Some structures show a salt or complex split into parts, the way the source records it. The source made the active and inactive calls. Rule as the data show it: active = inhibition above about 15%; inconclusive = no clear call, values can overlap the other calls; inactive = below that.
Target: NAD-dependent protein deacylase sirtuin-5, mitochondrial (Homo sapiens) (UniProt Q9NXA8)
Assay: SIRT5 desuccinylase inhibitors, primary screen, biochemical, fluorescence imaging, single point, set 5 (AID 652115)
Conditions: Purified SirT5, succinyl-peptide AMC, trypsin-coupled fluorescence; at 15 µM; stronger effect = higher value

By UniProt entry, the sequences of proteins in these tests, tags left out.
UniProt Q9NXA8, whole entry: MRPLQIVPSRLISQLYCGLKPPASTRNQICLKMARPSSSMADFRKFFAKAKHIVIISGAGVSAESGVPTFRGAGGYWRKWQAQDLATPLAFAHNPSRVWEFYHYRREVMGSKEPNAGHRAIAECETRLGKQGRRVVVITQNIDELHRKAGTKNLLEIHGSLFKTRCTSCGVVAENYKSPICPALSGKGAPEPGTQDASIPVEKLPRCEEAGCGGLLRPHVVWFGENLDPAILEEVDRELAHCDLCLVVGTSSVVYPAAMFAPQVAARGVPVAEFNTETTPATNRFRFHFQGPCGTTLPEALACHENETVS

Row | SMILES | inhibition
1 | CCc1ccc(OP(C)(=O)N2CCN(c3ccc([N+](=O)[O-])cc3)CC2)cc1 (centres undefined) | inactive: 1.77%
2 | CP(=O)(NC(=O)Nc1ccccc1)Oc1ccccc1 (centres undefined) | inactive: 2.32%
3 | CP(=O)(Oc1ccccc1)OC(c1ccccc1)C(F)(F)F (centres undefined) | inactive: -2.56%
4 | CP(=O)(Nc1ccc(SC(F)(F)F)cc1)Oc1ccc(Cl)cc1 (centres undefined) | inactive: 0.851%
5 | CP(=O)(Nc1ccccn1)Oc1ccc(Cl)cc1 (centres undefined) | inactive: -4.73%
6 | CCOC(=O)c1ccc(NP(C)(=O)Oc2ccc(OC)cc2)cc1 (centres undefined) | inactive: 2.16%
7 | O=[N+]([O-])c1cc([N+](=O)[O-])c(O)c([N+](=O)[O-])c1.c1ccc(Oc2ccncc2)cc1 | inactive: 0.666%
8 | CP(=O)(Nc1ccccc1Br)Oc1ccccc1 (centres undefined) | inactive: 0.985%
9 | COc1ccccc1OP(C)(=O)Nc1ccccc1 (centres undefined) | inactive: -0.651%
10 | O=[N+]([O-])c1ccc2c(c1)C=Nc1ccccc1O2 | inactive: -0.831%
11 | CC(C)(C)c1ccc(OP(C)(=O)Nc2ccc(SC(F)(F)F)cc2)cc1 (centres undefined) | inactive: 1.48%
12 | Cc1cc(C)cc(OP(C)(N)=O)c1 (centres undefined) | inactive: -1.39%
13 | COc1ccccc1OP(C)(=O)Nc1cc(Cl)ccc1C (centres undefined) | inactive: -6.06%
14 | CCN(CC)CCCOC(=O)C(O)(c1ccccc1)c1ccccc1 | inactive: -6.56%
15 | COc1ccccc1-c1ccccn1.O=[N+]([O-])c1cc([N+](=O)[O-])c(O)c([N+](=O)[O-])c1 | inactive: 0.914%
16 | CCOC(=O)c1ccc(NP(C)(=O)Oc2cc(C)cc(C)c2)cc1 (centres undefined) | inactive: 2.38%
17 | Cc1cc(C)cc(OP(C)(=O)Nc2ccc(C)cc2C)c1 (centres undefined) | inactive: 6.68%
18 | COc1ccccc1OP(C)(=O)Nc1cccc(Br)c1 (centres undefined) | inactive: -0.535%
19 | CP(=O)(Nc1cccc(Br)c1)Oc1ccccc1 (centres undefined) | inactive: 3.16%
20 | O=C(O)c1cccc(Nc2c([N+](=O)[O-])cc([N+](=O)[O-])cc2[N+](=O)[O-])c1 | inactive: 6.58%
21 | CCOC(=O)C(CC)C1=NC(C)(C)Cc2ccccc21.O=[N+]([O-])c1cc([N+](=O)[O-])c(O)c([N+](=O)[O-])c1 (centres undefined) | inactive: 7.97%
22 | O=[N+]([O-])c1cc([N+](=O)[O-])c(Nc2nnnn2CCO)c([N+](=O)[O-])c1 | inactive: 4.18%
23 | CN1CCCCC1COC(=O)C1(O)c2ccccc2CCc2ccccc21 (centres undefined) | inactive: -2.26%
24 | CN(Cc1cccnc1)C(=O)COc1ccc(Cl)c(Cl)c1.O=[N+]([O-])c1cc([N+](=O)[O-])c(O)c([N+](=O)[O-])c1 | inactive: 0.831%
25 | O=[N+]([O-])c1cc([N+](=O)[O-])c(-n2nnc3ccccc32)c([N+](=O)[O-])c1 | inactive: 1.25%
26 | O=[N+]([O-])c1cc([N+](=O)[O-])c(-c2cnn(-c3ccccc3)c2)c([N+](=O)[O-])c1 | inactive: -6.91%
27 | CP(=O)(Nc1ccc(SC(F)(F)F)cc1)Oc1ccc(F)cc1 (centres undefined) | inactive: -1.01%

Row | SMILES | inhibition
28 | COc1ccc(NP(C)(=O)Oc2ccccc2OC)cc1 (centres undefined) | inactive: -1.95%
29 | Cc1c(C(c2ccc3c(c2)OCO3)c2c(C)n(C)n(-c3ccccc3)c2=O)c(=O)n(-c2ccccc2)n1C.O=[N+]([O-])c1cc([N+](=O)[O-])c(O)c([N+](=O)[O-])c1 | inactive: -4.7%
30 | O=[N+]([O-])c1ccc(OP2(=O)COCCO2)cc1 (centres undefined) | inactive: -3.23%
31 | Cc1cc(-c2cccc3ccccc23)c(C)cn1.O=[N+]([O-])c1cc([N+](=O)[O-])c(O)c([N+](=O)[O-])c1 | inactive: 4.07%
32 | O=[N+]([O-])c1cc([N+](=O)[O-])c(NCC2CCS(=O)(=O)C2)c([N+](=O)[O-])c1 (centres undefined) | inactive: -2.28%
33 | COc1ccc(OP(C)(=O)Nc2ccc(SC(F)(F)F)cc2)cc1 (centres undefined) | inactive: -4.92%
34 | CCCCCOc1ccc(NP(C)(=O)Oc2ccc(Cl)cc2Cl)cc1 (centres undefined) | inactive: -3.51%
35 | O=[N+]([O-])c1cc([N+](=O)[O-])c(OC2CCCCC2O)c([N+](=O)[O-])c1 (centres undefined) | inactive: 5.22%
36 | Cc1c([N+](=O)[O-])cc([N+](=O)[O-])c(Br)c1[N+](=O)[O-] | inactive: 3.42%
37 | CP(=O)(Nc1ccccc1F)Oc1ccccc1 (centres undefined) | inactive: -1.33%
38 | CC(C)c1ccc(OP(C)(=O)Nc2ccc(SC(F)(F)F)cc2)cc1 (centres undefined) | inactive: 1.62%
39 | O=[N+]([O-])c1cc([N+](=O)[O-])c(Nc2ccc(Cl)cc2)c([N+](=O)[O-])c1 | inactive: 1.97%
40 | COc1ccc2c(c1O)-c1c(O)c(OC)cc3c1[C@H](C2)[N+](C)(C)CC3.O=[N+]([O-])c1cc([N+](=O)[O-])c([O-])c([N+](=O)[O-])c1[O-] | inactive: -9.05%
41 | O=C(OC1CN2CCC1CC2)c1ccc([N+](=O)[O-])cc1 (centres undefined) | inactive: -5.43%
42 | O=C(OCCN1CCN(CCOCc2ccccc2)CC1)C(O)(c1ccccc1)c1ccccc1 | inactive: -1.23%
43 | COc1ccccc1OP(C)(=O)Nc1ccc(Br)cc1 (centres undefined) | inactive: -5.02%
44 | O=[N+]([O-])c1cc([N+](=O)[O-])c(Nc2ccccn2)c([N+](=O)[O-])c1 | inactive: 3.51%
45 | Cc1cc(C)cc(OP(C)(=O)Nc2cccc(C(F)(F)F)c2)c1 (centres undefined) | inactive: -3.96%
46 | CP(=O)(OCCOc1ccccc1)OCCOc1ccccc1 | inactive: 1.21%
47 | CCCCCCCCCCCCCCCC1C[N+](C)(C)CCOP(C)(=O)O1 (centres undefined) | active: 17%
48 | CP(=O)(Nc1ccc(Cl)cc1Cl)Oc1ccccc1 (centres undefined) | inactive: -3.19%
49 | CCOC(=O)c1ccc(NP(C)(=O)Oc2ccc(Cl)cc2)cc1 (centres undefined) | inactive: -2.38%
50 | Nc1ccc2c(ccc3cccnc32)n1.O=[N+]([O-])c1cc([N+](=O)[O-])c(O)c([N+](=O)[O-])c1 | inactive: -3.86%
51 | O=C(OCCCN1CCCC1)C(O)(c1ccccc1)C1CCCCC1 (centres undefined) | inactive: -2.56%
52 | CCc1ccc(OP(C)(=O)Nc2cccnc2)cc1 (centres undefined) | inactive: -0.74%
53 | CN(C)C(=O)c1c([N+](=O)[O-])cc([N+](=O)[O-])cc1[N+](=O)[O-] | inactive: -3.8%
54 | COc1ccccc1OP(C)(=O)Nc1ccccc1Br (centres undefined) | inactive: -0.065%

Reference: PubChem BioAssay AID652115 (Broad Institute, 2013)
